Biological target: FKBP (Homo sapiens, UniProt P62942)
Assay: Ki test procedure: inhibition of peptidyl-prolyl isomerase (rotamase) activity, chymotrypsin-coupled assay
Type: biochemical
Details: apparent Ki, substrate N-succinyl-Ala-Phe-Pro-Phe-p-nitroanilide, Table II

Protein sequences, listed by entry. Tags and fused reporters are not part of them.
UniProt P62942, whole entry: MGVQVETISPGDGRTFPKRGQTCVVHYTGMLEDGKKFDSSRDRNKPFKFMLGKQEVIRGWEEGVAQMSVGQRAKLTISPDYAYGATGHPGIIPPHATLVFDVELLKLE

Q: How did the Ki turn out when COc1cc(C(=O)C(=O)N2CCCCC2C(=O)OC(CCCc2ccccc2)CCc2cccnc2)cc(OC)c1OC [Compound 30, 1-Phenyl-6-(3-pyridyl)-3-hexyl (S)-N-(3,4,5-trimethoxyphenylglyoxyl)pipecolate] was run?
A: The Ki was 3 nM.
